Experimental data as given in PubChem BioAssay AID1006 (Sanford-Burnham Center for Chemical Genomics, 2008).
This is a selection; strong and weak results do not stand in their true shares. Calls of active or inactive are those of the source.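 The calls were made as follows: active = inhibition above about 50% when tested at 10 µM (limit read from the data); inactive = the rest.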

Amino acid sequences for entries named in this document (tags omitted).
UniProt P08659, whole entry, looked up: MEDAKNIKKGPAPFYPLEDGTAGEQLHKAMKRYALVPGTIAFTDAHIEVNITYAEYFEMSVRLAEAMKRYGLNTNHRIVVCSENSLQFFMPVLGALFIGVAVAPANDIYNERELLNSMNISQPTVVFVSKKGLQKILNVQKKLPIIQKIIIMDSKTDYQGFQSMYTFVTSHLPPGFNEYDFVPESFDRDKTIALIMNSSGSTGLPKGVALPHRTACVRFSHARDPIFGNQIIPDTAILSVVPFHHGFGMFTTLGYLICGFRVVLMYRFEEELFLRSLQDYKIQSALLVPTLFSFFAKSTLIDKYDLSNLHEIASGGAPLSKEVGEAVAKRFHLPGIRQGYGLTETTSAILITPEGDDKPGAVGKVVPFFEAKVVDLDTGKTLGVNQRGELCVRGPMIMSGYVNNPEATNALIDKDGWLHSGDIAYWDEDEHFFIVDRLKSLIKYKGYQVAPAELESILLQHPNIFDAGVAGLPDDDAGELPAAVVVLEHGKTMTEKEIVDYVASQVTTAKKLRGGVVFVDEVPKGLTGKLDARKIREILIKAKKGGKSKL

target: Luciferin 4-monooxygenase (Photinus pyralis) (UniProt P08659); experiment: inhibition of purified FLuc reporter enzyme – biochemical, luminescence, ATPLite, artefact control for luciferase-based inhibitor screens, primary screen (AID 1006); details: ATPLite firefly luciferase biochemical luminescence, 10 min; at 10 µM; hits give high values

Row | Structure (SMILES) | inhibition
1 | Cc1cc(SC(NC(=O)c2ccccc2)C(Cl)(Cl)Cl)nc(C(C)C)n1 (centres undefined) | inactive: -8.9%
2 | Cc1cc(SC(NC=O)C(Cl)(Cl)Cl)ncn1 (centres undefined) | inactive: 0.5%
3 | O=P(Nc1ccccn1)(c1cccc2ccccc12)c1cccc2ccccc12 | inactive: -4.4%
4 | O=C(COc1ccccc1)OC1CN2CCC1CC2 (centres undefined) | inactive: -1.7%
5 | COP1(=S)c2c(C)nn(CCC#N)c2N=C(c2ccc(F)cc2)N1C (centres undefined) | inactive: -3.7%
6 | CCC(C)N(CC(C)C)C(=S)SC(NC(C)=O)C(Cl)(Cl)Cl (centres undefined) | inactive: -7.5%
7 | COc1ccc2nc(NP(=O)(c3ccccc3)c3ccccc3)sc2c1 | inactive: -10.9%
8 | Cc1c2c(nc3ccccc13)SC(C(Cl)Cl)C2 (centres undefined) | inactive: -0.4%
9 | O=C(OC1CN2CCC1CC2)C12CC3CC(CC(C3)C1)C2 (centres undefined) | inactive: -2%
10 | Cc1cc(=O)[nH]c(N[N+](=O)[O-])n1 | inactive: -1.8%
11 | COc1ccc(N/C(=N/P(=O)(N2CCOCC2)N2CCOCC2)N2CCOCC2)cc1 | inactive: -6.2%
12 | Cc1ccc2nc3c(c(C)c2c1)CC(C(Cl)Cl)S3 (centres undefined) | inactive: -1.5%
13 | CCN(CC)C(=S)SC(NC=O)C(Cl)(Cl)Cl (centres undefined) | inactive: -1.8%
14 | CC(C)NC(=O)NP(=O)(Oc1ccccc1)Oc1ccccc1 | inactive: -5.4%
15 | O=[N+]([O-])c1cc([N+](=O)[O-])c(-c2ccn[nH]2)s1 | inactive: -2.5%
16 | ClCCSc1nnc(-c2cccnc2)o1 | inactive: 1.6%
17 | CCOP1(=S)c2c(C)nn(CCC#N)c2N=C(c2ccccc2F)N1C (centres undefined) | inactive: -6.5%
18 | O=P(Nc1nccs1)(c1ccccc1)c1nc2ccccc2s1 (centres undefined) | inactive: -0.3%
19 | O=P(Nc1nccs1)(Oc1ccccc1)Oc1ccccc1 | inactive: -1.6%
20 | CCOP1(=S)c2c(C)nn(CCC#N)c2N=C(c2ccc(F)cc2)N1C (centres undefined) | inactive: -6.4%
21 | O=[N+]([O-])c1ccc2c(c1)nnn2O | inactive: -4.9%
22 | Cc1cccc(OCC(=O)OC2CN3CCC2CC3)c1 (centres undefined) | inactive: -2.1%
23 | COc1cc(C(=O)NCC2(N3CCOCC3)CCCCC2)cc(Cl)c1OC(C)C | inactive: -2.6%
24 | COc1cc(C2NCCC3(OCCO3)C2(C)C)cc(OC)c1OC (centres undefined) | inactive: -4.1%
25 | CCOP(=O)(Nc1cccc2ccccc12)OCC | inactive: -2.9%
26 | Cc1ccc(NCCc2c([N+](=O)[O-])cc([N+](=O)[O-])cc2[N+](=O)[O-])cc1 | inactive: -0.4%
27 | Clc1n[nH]nc1-c1nn[nH][15n]1 | inactive: -5.5%

Row | Structure (SMILES) | inhibition
28 | O=P1(Nc2ccccn2)COc2ccccc2OC1 | inactive: -5.2%
29 | CN(C(=O)Cc1ccc(Cl)c(Cl)c1)[C@@H]1CCCC[C@H]1N1CCCC1 | inactive: -3.5%
30 | CC(C)/C=N\N=C(\N)N[N+](=O)[O-] | inactive: -5.1%
31 | CN(C)C1(CNC(=O)c2ccc(S(C)(=O)=O)cc2)CCCCC1 | inactive: -4.6%
32 | Cc1nn(-c2ccccc2)c2c1P(=O)(N1CCOCC1)N(C)C(c1ccccc1)=N2 (centres undefined) | inactive: -8.1%
33 | CC1CCC(C(C)C)C(OP(=O)(Nc2ccccn2)c2ccccc2)C1 (centres undefined) | inactive: -1.5%
34 | O=P1(Nc2ccc(Br)cn2)COc2ccccc2OC1 | inactive: -3.3%
35 | Cc1ccc(OCC(=O)OC2CN3CCC2CC3)cc1 (centres undefined) | inactive: -2.6%
36 | O=P1(Nc2ncccn2)COc2ccccc2OC1 | inactive: 6.4%
37 | O=P(Nc1ccccn1)(c1ccc(Br)cc1)c1ccc(Br)cc1 | inactive: 3.1%
38 | O=C(OC1CN2CCC1CC2)c1cccc(Cl)c1 (centres undefined) | inactive: -0.3%
39 | C(Cc1nn[nH]n1)Cc1nn[nH]n1 | inactive: -2.9%
40 | CC(=O)NC(SC(=S)N(C)C)C(Cl)(Cl)Cl (centres undefined) | inactive: -2.2%
41 | c1nnnn1CCn1cnnn1 | inactive: -7.1%
42 | O=P(Nc1nccs1)(c1ccccc1)c1ccccc1 | inactive: -0.6%
43 | CC(C)C(=O)NC(Sc1ccccc1)C(Cl)(Cl)Cl (centres undefined) | inactive: -6.8%
44 | CC(C)(C)C(=O)NC(Sc1ccccc1)C(Cl)(Cl)Cl (centres undefined) | inactive: -7.2%
45 | O=P1(Nc2nc3ccc(Cl)cc3s2)COc2ccccc2O1 (centres undefined) | inactive: 1.1%
46 | CCOc1ccc(C2=NCC(CBr)S2)cc1 (centres undefined) | inactive: 16.7%
47 | CC(=O)Nc1ccc(Oc2c([N+](=O)[O-])cc([N+](=O)[O-])cc2[N+](=O)[O-])cc1 | inactive: -3.6%
48 | c1ccc(-c2nn[nH]n2)c(-c2nn[nH]n2)c1 | inactive: 4.4%
49 | CCOC(=O)NC(Sc1ccccc1)C(Cl)(Cl)Cl (centres undefined) | inactive: -6.8%
50 | O=C(NC1CCS(=O)(=O)C1)NP(=S)(Oc1ccccc1)Oc1ccccc1 (centres undefined) | inactive: -1.5%
51 | CCNC(=S)/N=C(\N)N[N+](=O)[O-] | inactive: -9%
52 | O=c1c2cc([N+](=O)[O-])ccc2[nH]c2c([N+](=O)[O-])cc([N+](=O)[O-])cc12 | inactive: -7.7%
53 | CCC(=O)N1C2C3N(C(=O)CC)C1C1N(C(=O)CC)C(C(N1C(=O)CC)N3C(=O)CC)N2C(=O)CC | inactive: -8.7%
54 | COC(=O)c1cc2c(s1)N=C(c1ccccc1)N(C)P2(=O)N1CCOCC1 (centres undefined) | inactive: -6.9%

Row | Structure (SMILES) | inhibition
55 | Cc1ccc(OP(=O)(Nc2ccccn2)Oc2ccc(C)cc2)cc1 | inactive: -4.6%
56 | CC(=O)NC(SC(=S)N(CC(C)C)CC(C)C)C(Cl)(Cl)Cl (centres undefined) | inactive: -10%
57 | CCOP(=O)(Nc1ccccc1)OCC | inactive: -4.9%
58 | Cc1cc(SC(NC(=O)c2ccc(F)cc2)C(Cl)(Cl)Cl)ncn1 (centres undefined) | inactive: -11.4%
59 | CCN(N=Nc1nonc1N)c1nonc1N | inactive: -16.7%
60 | Clc1ccc(Cl)c(NC2=NCC(CBr)S2)c1 (centres undefined) | inactive: -4.6%
61 | CN1CCCC(OC(=O)C(c2ccccc2)c2ccccc2)C1 (centres undefined) | inactive: -4.5%
62 | COc1ccccc1OP(=O)(Nc1ccc(C)cn1)Oc1ccccc1OC | inactive: -4.1%
63 | Cc1ccc(N/C(=N/P(=O)(N2CCOCC2)N2CCOCC2)N2CCOCC2)cc1 | inactive: -5.1%
64 | NC(=O)c1cc([N+](=O)[O-])cc([N+](=O)[O-])c1N | inactive: 0.6%
65 | Oc1ccccc1CNc1ccccn1 | inactive: -1.3%
66 | Cc1c2non([O-])c-2c(C)[n+](=O)[n+]1[O-] | inactive: 1.3%
67 | O=C(NC(Sc1ccncn1)C(Cl)(Cl)Cl)c1ccccc1 (centres undefined) | inactive: -5.5%
68 | CC(C)CC(=O)NC(Sc1ccc(Cl)cc1)C(Cl)(Cl)Cl (centres undefined) | inactive: -6.2%
69 | Cc1ccc(NP(=O)(Oc2ccccc2)Oc2ccccc2)nc1 | inactive: -3.9%
70 | O=[N+]([O-])c1cc([N+](=O)[O-])c(CCNc2ccccc2)c([N+](=O)[O-])c1 | inactive: -3.2%
71 | CCc1nc2c(n1)c1c(non1O)c1c2no[n+]1[O-] | inactive: -9.9%
72 | CC(=O)N1C2C3N(C(C)=O)C1C1N(C(C)=O)C(C(N1C(C)=O)N3C(C)=O)N2C(C)=O | inactive: -10.1%
73 | O=[N+]([O-])c1cccc2n[nH]nc12 | inactive: -5.9%
74 | COc1ccc(C2=NCC(CBr)S2)cc1 (centres undefined) | inactive: 3.9%
75 | CC1CCN(C(=O)Oc2c(Cl)cc(Cl)c3cccnc23)CC1 | inactive: -1.1%
76 | CC(C)=N/N=C(\N)N[N+](=O)[O-] | inactive: -3.8%
77 | CN(C)C(=O)OCCc1n(C)cc[n+]1C | inactive: -3%
78 | CCN(/C(=N/P(=O)(N1CCOCC1)N1CCOCC1)N1CCOCC1)c1ccc(OC)cc1 | inactive: -4.1%
79 | O=[N+]([O-])c1ncn(CCn2ncnc2[N+](=O)[O-])n1 | inactive: -0.9%
